pKi: −log10 of the molar value.
How the values were obtained:
MCF7 cells = test: Cell growth assay; type: cell-based; details: 10 μM, 10 days
PRMT3 = PRMT3 (Homo sapiens, UniProt O60678); test: PRMT biochemical scintillation proximity assay; details: read-out: Ki PRMT3; calculated from IC50

Protein sequences, listed by entry. Tags and fused reporters are not part of them. Lines headed by an entry give the natural chain unless they say otherwise; changes in a name come on top.
UniProt O60678: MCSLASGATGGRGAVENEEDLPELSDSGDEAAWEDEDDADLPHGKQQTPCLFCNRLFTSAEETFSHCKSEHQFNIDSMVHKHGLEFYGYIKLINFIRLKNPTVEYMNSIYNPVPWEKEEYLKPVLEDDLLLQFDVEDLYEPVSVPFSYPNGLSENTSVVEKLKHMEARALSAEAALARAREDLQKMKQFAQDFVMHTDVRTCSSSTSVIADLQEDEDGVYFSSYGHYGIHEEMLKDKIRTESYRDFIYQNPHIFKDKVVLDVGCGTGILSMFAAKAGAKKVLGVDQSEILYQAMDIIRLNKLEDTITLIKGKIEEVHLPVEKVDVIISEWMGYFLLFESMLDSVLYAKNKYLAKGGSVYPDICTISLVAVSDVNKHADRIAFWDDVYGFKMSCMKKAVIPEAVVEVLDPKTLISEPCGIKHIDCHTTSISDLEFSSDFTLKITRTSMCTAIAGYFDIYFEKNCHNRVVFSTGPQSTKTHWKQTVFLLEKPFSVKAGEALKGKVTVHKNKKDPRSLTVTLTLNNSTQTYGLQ

pKi (PRMT3): 7.26
Compound: CC(C)Oc1ccc(-c2c[nH]cc2CN(C)CCN)cc1 [MS023]
effect on cell growth (confluency) (MCF7 cells): significant decrease of cell growth
